Protein sequences, listed by entry. Tags and fused reporters are not part of them. Residues count along the entry.
UniProt Q99616, 17-98, species assumed: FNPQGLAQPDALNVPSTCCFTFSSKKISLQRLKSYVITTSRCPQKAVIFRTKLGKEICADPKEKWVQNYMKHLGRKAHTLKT

According to PMC8159385, “Chemical synthesis of human syndecan-4 glycopeptide bearing O-, N-sulfation and multiple aspartic acids for probing impacts of the glycan chain and the core peptide on biological functions” (Chemical Science, 2020):

Target: CCL-13 (Homo sapiens, UniProt Q99616)
Assay: BLI binding assay, biotinylated compounds on streptavidin biosensors, CCL-13
Procedure: Cytokines and growth factors are important proteins modulating cellular functions, many of which are known to interact with HS.[1,8,34,67] To probe the impacts of the glycan and the core peptide, the binding of glycopeptide 1, pentasaccharide 30, and peptide 31 to several representative growth factors and cytokines including fibroblast growth factor 2 (FGF-2), interleukin 8 (IL-8) and chemokine (C–C motif ligand 13 (CCL-13)) respectively was tested using the biolayer interferometry (BLI). The biotinylated glycopeptide 1, pentasaccharide 30, and peptide 31 were immobilized on streptavidin coated biosensors, and their dissociation constants (KD) with the proteins were measured (Table 2). […]
General procedure for biotinylation
To a solution of free amine compounds in DMSO/H 2O (1/1, 0.5 ml) was added […]
The reaction was stirred at room temperature for 5 hours. Then the mixture was loaded onto a G-15 Sephadex column for purification. […] General procedure for BLI binding assay
The binding assay was performed on the Octet K2 System (Pall ForteBio). The biotinylated […]
compounds were absorbed to streptavidin (SA) sensor for 2 min. The sensor was then balanced in the assay buffer (PBS containing 0.005% P20) and dipped into protein solution in assay buffer at different concentration. After 5 min of association, the sensor was brought back to the previous assay

With `O=C(O)CCCC[C@@H]1SC[C@@H]2NC(=O)N[C@@H]21` [biotin, reference compound] the “KD with CCL-13” value was “did not show any significant binding”.
